Our source for the % cells with GFP-LC3 spots values is PubChem BioAssay AID463193 (University of Pittsburgh Molecular Library Screening Center, 2010).

Each structure is given as a SMILES string. The entries are a selection whose mix differs from that of the whole data set. Some tests of the compounds listed are not included; inactive here does not mean inactive elsewhere. Activity calls are given as the source filed them.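 The calls were made as follows: active = percentage of spot-positive cells more than 3 SD above its plate mean, without a fluorescence outlier flag or 80% toxicity; inconclusive = no clear call, values can overlap the other calls; inactive = the rest.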

The nature of this test: autophagy modulators in MEF cells, primary screen, imaging, high-content, MEF GFP-LC3 (AID 463193).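 Also: spot-positive cell cutoff set from DMSO-treated cells.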 As to conditions: MEF GFP-LC3 puncta imaging, at 10 µM, active compounds read high.
With `O=C(NCC1(N2CCCCC2)CCCCC1)c1cc([N+](=O)[O-])ccc1Cl`, the % cells with GFP-LC3 spots is inactive: 0.53%.

`CC(C)N1C(=O)CC2(CCN(CCOC(=O)C(O)(c3ccccc3)c3ccccc3)CC2)C1=O`: the % cells with GFP-LC3 spots is inactive: 5.56%. Next, `CN(C)C1CCCC1OC(=O)C(O)(c1ccccc1)c1ccccc1` (centres undefined): inactive: 7.51%. As to `Cc1ccccc1C(=O)NCC1(N2CCCCC2)CCCCC1`, the % cells with GFP-LC3 spots was inactive: 1.65%.

For the compound `CCN1CCCC(OC(=O)C2(O)c3ccccc3C=Cc3ccccc32)C1` (centres undefined), the % cells with GFP-LC3 spots was inactive: 8.01%. As for `C=CCN1CCN(CCOC(=O)C(O)(c2ccccc2)c2ccccc2)CC1`, the % cells with GFP-LC3 spots is inactive: 1.41%. Take `COc1cccc(C(=O)NCC2(N3CCCCC3)CCCCC2)c1`: the % cells with GFP-LC3 spots was inactive: 2.92%. With `O=C(OC1CN2CCC1CC2)C(CO)(c1ccccc1)c1ccccc1` (centres undefined), the % cells with GFP-LC3 spots was inactive: 8%. Next, `CN(C)c1cccc(C(=O)NCC2(N(C)C)CCCCC2)c1`: inactive: 7.77%.
